From published antibiotic growth screens (doi:10.1038/s41589-023-01349-8)
The other results are listed elsewhere or left out.

Tested on: A. baumannii ATCC 17978
Assay: relative growth (fraction of control); higher = less inhibition
Conditions: 50 µM

Compared with COc1cccc(NC(=O)N(C)C[C@@H]2Oc3cc(C#CC4(O)CCCC4)ccc3S(=O)(=O)N([C@H](C)CO)C[C@@H]2C)c1, C[C@@H]1CN([C@H](C)CO)S(=O)(=O)c2ccc(C#CC3CCCCC3)cc2O[C@H]1CN(C)C(=O)Cc1ccncc1 is lower in relative growth: 1.07 for the first, 0.894 for the second.

First: Nc1nnc(-c2cccc(Cl)c2Cl)c(N)n1
Second: N[C@@H](CCc1ccccc1Cl)c1ccc2c(c1)OCCO2
The relative growth of the first is higher: 1.05 for the first, 0.748 for the second.

First: Cc1noc(C)c1NC(=O)N[C@@H]1C=C[C@H](CC(=O)NCCCN(C)C)O[C@@H]1CO
Second: CN(C)CC(=O)N[C@@H]1C=C[C@@H](CC(=O)O)O[C@@H]1CO
The relative growth of the first is higher: 1.03 for the first, 1.01 for the second.

Compared with c1ccc(-c2nc(C34CC5CC(CC(C5)C3)C4)cs2)cc1, Clc1ccc(-c2onc3cc(-c4ccccc4)ccc23)cc1 is higher in relative growth: 0.893 for the first, 1.1 for the second.

First: C[C@H]1CN([C@@H](C)CO)S(=O)(=O)c2ccc(C3=CCCC3)cc2O[C@H]1CN(C)C(=O)c1cnccn1
Second: C[C@H]1CN([C@@H](C)CO)S(=O)(=O)c2ccc(C3=CCCC3)cc2O[C@@H]1CN(C)C(=O)C1CCOCC1
The relative growth of the first is higher: 0.997 for the first, 0.99 for the second.

Compared with CN1CCCC(n2nc(Cc3ccc(Cl)cc3)c3ccccc3c2=O)CC1.Cl (stereo not given), COc1ccccc1CNC(=O)C[C@H]1CC[C@@H]2[C@H](COC[C@@H](O)CN2C(=O)Nc2ccc(Cl)cc2)O1 is higher in relative growth: 0.928 for the first, 0.993 for the second.

Compared with CN1CCN(C(=O)C[C@@H]2CC[C@H]3[C@@H](COC[C@@H](O)CN3Cc3ccc4c(c3)OCO4)O2)CC1, O=C(C[C@H]1CC[C@@H]2[C@H](COC[C@H](O)CN2C(=O)C2CC2)O1)NCc1ccncc1 is higher in relative growth: 0.92 for the first, 1.12 for the second.

Going from NC(=S)c1ccc(-n2cncn2)nc1 to C[C@@H](N)c1cnn(-c2ccc(F)cc2)c1, the relative growth falls from 1.07 to 1.03.

First: O=C(O)c1cnc[nH]1
Second: Cc1cc(O)cc(O)c1C(=O)O
The relative growth of the first is higher: 1.02 for the first, 0.956 for the second.

First: O=C(O)/C=C(\CC(=O)O)C(=O)O
Second: O=C(CCCCC(=O)N/N=C/[C@@H](O)[C@H](O)[C@H](O)CO)NO
The relative growth of the first is higher: 1.06 for the first, 0.912 for the second.

Compared with Nc1nc(=O)[nH]cc1F, Nc1nc(=O)c2ncn(COCCO)c2[nH]1 is lower in relative growth: 0.987 for the first, 0.967 for the second.

Going from CN1C(=O)[C@@H]2[C@@H]3C[C@H]4[C@@H](O[C@H]1[C@H]42)[C@H]3O to CC(=O)NC[C@H]1CN(c2ccc(N3CCOCC3)c(F)c2)C(=O)O1, the relative growth falls from 1.11 to 0.533.

First: CC1(C)S[C@@H]2[C@H](NC(=O)[C@H](C(=O)[O-])c3ccsc3)C(=O)N2[C@H]1C(=O)[O-].[Na+].[Na+]
Second: CC(C)(O/N=C(\C(=O)N[C@@H]1C(=O)N2C(C(=O)[O-])=C(C[n+]3ccccc3)CSC12)c1csc(N)n1)C(=O)O (stereo not given in full)
The relative growth of the first is higher: 1.04 for the first, 0.937 for the second.

First: COCCNC(=O)C[C@H]1C[C@@H]2c3cc(NC(=O)COC)ccc3O[C@@H]2[C@H](CO)O1
Second: O=C(C[C@H]1C[C@H]2c3cc(NS(=O)(=O)c4ccc(F)cc4)ccc3O[C@H]2[C@H](CO)O1)NCCc1ccccc1
The relative growth of the first is higher: 1.16 for the first, 0.938 for the second.

First: C=C1CC[C@H](O)C/C1=C/C=C1\CCC[C@]2(C)C([C@H](C)/C=C/[C@H](C)C(C)C)CC[C@@H]12 (stereo not given in full)
Second: C=C1CCC(=O)C(C)CCC2C1CC2(C)C (stereo not given)
The relative growth of the first is higher: 1.29 for the first, 1.15 for the second.

Going from C[C@H](NC(=O)C[C@H]1C=C[C@H](NC(=O)CN2CCOCC2)[C@@H](CO)O1)c1ccccc1 to CC(C)NC(=O)N[C@@H]1C=C[C@H](CC(=O)NCCN2CCCC2)O[C@H]1CO, the relative growth falls from 1.17 to 0.957.

Compared with CC(C)NC(=O)N[C@@H]1CC[C@H](CCN)O[C@H]1CO, O=C(N[C@@H]1CC[C@H](CC(=O)N2CCOCC2)O[C@H]1CO)c1ccccn1 is higher in relative growth: 1.02 for the first, 1.04 for the second.

Going from CN(C)C(=O)c1cccc(-c2cccc(-c3nc(C(=O)N4CCCCC4)cc4c3[C@H](CCO)N([S@@](=O)C(C)(C)C)C4)c2)c1 to COc1ccc(-c2cnc3c(c2)C(=O)N([C@@H](C)CO)C[C@H](C)[C@H](CN(C)C(=O)C2CCOCC2)O3)cc1, the relative growth falls from 1.13 to 1.12.

Compared with C[C@@H]1CN([C@H](C)CO)S(=O)(=O)c2ccc(C#CC3CC3)cc2O[C@@H]1CN(C)Cc1ccccc1F, CCCN(C)C[C@H]1Oc2cc(C#Cc3ccccc3OC)ccc2S(=O)(=O)N([C@@H](C)CO)C[C@H]1C is higher in relative growth: 0.865 for the first, 0.964 for the second.

Going from COc1ccc(C#Cc2cnc3c(c2)C(=O)N([C@H](C)CO)C[C@@H](C)[C@@H](CN(C)C(=O)CN(C)C)O3)cc1 to COc1ccc(S(=O)(=O)N(C)C[C@@H]2Oc3cc(Br)ccc3S(=O)(=O)N([C@H](C)CO)C[C@@H]2C)cc1, the relative growth rises from 0.877 to 0.921.

Going from O=C(C[C@@H]1C=C[C@H](NS(=O)(=O)c2ccc(F)cc2)[C@H](CO)O1)NCc1ccc(Cl)c(Cl)c1 to O=C(C[C@@H]1C[C@@H]2c3cc(NS(=O)(=O)c4ccccc4)ccc3O[C@@H]2[C@H](CO)O1)NC1CCCCC1, the relative growth rises from 0.769 to 0.955.

First: Nc1nnc(SC[C@@H](O)CO)s1
Second: Nc1nnnn1CC(=O)OCC(=O)Nc1ccccc1
The relative growth of the first is higher: 1.01 for the first, 0.869 for the second.

Compared with COCCCNC(=O)[C@@]1(Sc2ccc(C)cc2)CC(=O)N(C2Cc3ccccc3C2)[C@@H]1c1ccc(CO)cc1I, COc1ccc(C(=O)Nc2ccc(CN3C(=O)[C@]4(O[C@H](CC(=O)N5CCC[C@H]5CO)[C@@H]([Si](C)(C)c5ccc(OC)cc5)[C@@H]4C)c4ccccc43)cc2)cc1 is lower in relative growth: 1.09 for the first, 1.01 for the second.

Compared with CC(=O)OC1CC[C@@]2(C)C(CC[C@]3(C)C2C2OC2[C@]24OC(=O)[C@@]5(CCC(C)C(C)C52)CC[C@]43C)C1(C)C (stereo not given in full), CC1(C)[C@@H](OC(=O)CCC(=O)O)CC[C@@]2(C)[C@H]1CC[C@]1(C)[C@H]2C(=O)C=C2[C@@H]3C[C@@](C)(C(=O)O)CC[C@]3(C)CC[C@]21C is higher in relative growth: 1.07 for the first, 1.14 for the second.

Compared with NC[C@@H]1O[C@H](O[C@@H]2[C@@H](CO)OC(O[C@@H]3[C@@H](O)[C@H](N)C[C@H](N)[C@H]3OC3O[C@H](CN)[C@@H](O)[C@H](O)[C@H]3N)[C@@H]2O)[C@H](N)[C@@H](O)[C@@H]1O.O=S(=O)(O)O.O=S(=O)(O)O.O=S(=O)(O)O (stereo not given in full), CN(C)C(=O)C[C@@H]1CC[C@@H]2[C@H](COC[C@H](O)CN2S(=O)(=O)c2ccccc2)O1 is higher in relative growth: 1.02 for the first, 1.08 for the second.

First: CN(C)CCCCNC(=O)[C@H]1C[C@H]2C(=O)NCC(=O)N2[C@H]1c1cccc(OCCO)c1
Second: CC(=O)NCCCC[C@@H]1NC(=O)[C@@H]2C[C@H](C(=O)NCCCCCNC(=O)CS)[C@H](c3cccc(OCCO)c3)N2C1=O
The relative growth of the first is higher: 0.888 for the first, 0.86 for the second.

Going from COCC(=O)N1C[C@@H](C)[C@H](OC)CN(C)C(=O)c2ccc(NC(=O)c3ccc(OC)cc3)cc2OC[C@@H]1C to CO[C@H]1CN(C)C(=O)c2ccc(NS(=O)(=O)c3cn(C)cn3)cc2OC[C@H](C)N(Cc2cccc(F)c2)C[C@H]1C, the relative growth falls from 1.24 to 1.09.

Compared with CO[C@H]1CN(C)C(=O)c2cc(NS(=O)(=O)CC(F)(F)F)ccc2OC[C@H](C)N(C(=O)NC(C)C)C[C@H]1C, CCS(=O)(=O)Nc1ccc2c(c1)C(=O)N(C)C[C@H](OC)[C@@H](C)CN(Cc1ccccn1)[C@H](C)CO2 is higher in relative growth: 0.972 for the first, 1.06 for the second.

Compared with CN(C)c1cc[n+](C(=O)N2CCOCC2)cc1, Cc1cc([N+](=O)[O-])nn1CC(=O)N1CCOCC1 is lower in relative growth: 1.08 for the first, 0.974 for the second.

Compared with N[C@H]1CC[C@H](CCn2cc(-c3ccccn3)nn2)O[C@@H]1CO, O=C(O)c1cn(-c2ccccc2)nn1 is higher in relative growth: 0.9 for the first, 1.01 for the second.

Going from CC(C)(C)OC(=O)C[C@H]1CC=CC[C@H](CC(=O)NCCO)C(=O)N[C@@H](Cc2c[nH]c3ccccc23)COC1=O to CN(C)C(=O)C[C@@H]1CC[C@H]2[C@@H](COC[C@H](O)CN2S(=O)(=O)c2ccccc2)O1, the relative growth falls from 1.01 to 0.937.

First: CC(C)(C)c1ccc(C(=O)Nc2cccc(C(F)(F)F)c2)cc1
Second: Cc1ccc(O)c(C(C)(C)C)c1
The relative growth of the first is higher: 1.04 for the first, 1.01 for the second.

First: c1cn2c3c(n1)CCCc3c1cc(C3CCCCC3)ccc12
Second: Cc1cc2c(cc1C(=O)c1ccc(C(=O)O)cc1)C(C)(C)CCC2(C)C
The relative growth of the first is higher: 1.14 for the first, 1.05 for the second.

First: O=C(NO)c1cccc(C(=O)N/N=C/[C@H](O)[C@@H](O)[C@H](O)[C@H](O)CO)c1
Second: NNC(=O)[C@@H]1C(c2ccccc2)[C@H]1C(=O)NN (stereo not given in full)
The relative growth of the first is higher: 1.12 for the first, 0.995 for the second.

Going from COc1ccc(C#Cc2ccc3c(c2)[C@]2(C(=O)N3)[C@H](C(=O)Nc3nc4ccccc4s3)[C@H]3C(=O)O[C@H](c4ccccc4)[C@H](c4ccccc4)N3[C@@H]2c2ccccc2OCCO)cc1 to COCCOC(=O)N1C(=O)[C@@]2(c3cc(C#CCCO)ccc31)[C@H](C(=O)N1CCc3cc(OC)c(OC)cc3C1)[C@H]1C(=O)O[C@H](c3ccccc3)[C@H](c3ccccc3)N1[C@@H]2c1ccccc1OCCO, the relative growth falls from 1.1 to 1.03.

Compared with CC(=O)O[C@]1(C(C)=O)CCC2C3C=C(C)C4=CC(=O)CCC4(C)C3CCC21C (stereo not given in full), CC(=O)O[C@H]1CC2CCC3C(CC[C@@]4(C)C3C[C@H]([N+]3(C)CCCCC3)[C@@H]4OC(C)=O)[C@@]2(C)C[C@@H]1N1CCCCC1.[Br-] (stereo not given in full) is lower in relative growth: 1.11 for the first, 0.949 for the second.

Compared with CCn1c(-n2nc(C)cc2C)nc2c1c(=O)n(CC(N)=O)c(=O)n2C, CCc1c(C(=O)OC)nnc2cc(C)nn12 is higher in relative growth: 0.986 for the first, 1.14 for the second.

Going from CC(=O)N[C@H]1C(=O)Nc2ccc(F)cc21 to CCOC(=O)CNc1n[nH]c(=O)[nH]c1=O, the relative growth rises from 1.03 to 1.1.

First: O=C1NC(=O)[C@@]2(CC[C@H](C(=O)O)C2)N1
Second: CN(C)[C@@H]1C(O)=C(C(N)=O)C(=O)[C@@]2(O)C(O)=C3C(=O)c4c(O)ccc(Cl)c4[C@@](C)(O)[C@H]3C[C@@H]12.Cl
The relative growth of the first is higher: 1.01 for the first, 0.171 for the second.

Compared with Cc1[nH]c(=O)[nH]c(=O)c1S(=O)(=O)NCc1ccccn1, CCO[C@@H]1OC(C(=O)N2CCN(Cc3ccc4c(c3)OCO4)CC2)=C[C@H](c2ccc3c(c2)OCO3)[C@H]1CCCO is higher in relative growth: 0.784 for the first, 0.813 for the second.
